The numbers were not newly measured in patent US9149445B2, “Inhibition of glycerol-3-phosphate acyltransferase (GPAT) and associated enzymes for treatment of viral infections” (THE TRUSTEES OF PRINCETON UNIVERSITY, priority 2009, dated 2015), which cites them from elsewhere.

Molecules are shown by their SMILES.

For this series, the target named is mTOR (Homo sapiens, UniProt P42345). The following applies: selective mTOR inhibitors; cited from earlier work.

Consider `O=C(Nc1ccc(-c2nc(N3CC4CCC(C3)O4)c3sccc3n2)cc1)NC1CC1`, for which the IC50 (as a rule, the concentration needed to halve the response being measured) is 700 pM.
